Experimental data as given in ChEMBL document CHEMBL1125093, “Structure-activity relationships of 8-cycloalkyl-1,3-dipropylxanthines as antagonists of adenosine receptors” (J Med Chem, 1990).

Molecular target: Adenosine receptor A1 (Rattus norvegicus) (UniProt P25099)
Assay: Antagonist activity against adenosine A1 receptor in rat adipocytes

Ki: 42 nM
Structure (SMILES): CCCn1c(=O)c2nc(C3CC3)[nH]c2n(CCC)c1=O
